Results published in patent US11208498B2, “Treatment and prevention of cancer using HER3 antigen-binding molecules” (Hummingbird Bioscience Holdings Pte. Ltd., priority 2019, dated 2021).

System: N87 cells
Assay: Antibody internalisation by flow cytometry
Type: cell-based
Conditions: 0 min to 4.5 hour
Protocol: In further experiments, antibody internalisation was investigated by flow cytometry.
N87 cells were seeded in wells of 96-well tissue culture plates at a density of 50,000 cells/well, and allowed to adhere overnight (37° C., 5% CO2). 10D1F.FcA or trastuzumab were mixed with labelling reagent, and the labelled complexes were added to cells. Samples were harvested at 0 min, 10 min, 30 min, 1 hour, 2 hour and 4.5 hour time points, by aspiration of cell culture medium, washing with PBS and treatment with accutase. Accutase activity was neutralised, and cells were resuspended in FACs buffer and analysed by flow cytometry.

Substance: trastuzumab: anti-HER2 antibody [reference compound]
- internalisation by flow cytometry: substantial internalisation
